From patent US6524805B1 (priority 1997, dated 2003) come the findings set out here.

The chains behind the UniProt entries cited, without tags or fusion partners. Residues count along the entry.
UniProt P35372, 1-314 isoform P35372-14: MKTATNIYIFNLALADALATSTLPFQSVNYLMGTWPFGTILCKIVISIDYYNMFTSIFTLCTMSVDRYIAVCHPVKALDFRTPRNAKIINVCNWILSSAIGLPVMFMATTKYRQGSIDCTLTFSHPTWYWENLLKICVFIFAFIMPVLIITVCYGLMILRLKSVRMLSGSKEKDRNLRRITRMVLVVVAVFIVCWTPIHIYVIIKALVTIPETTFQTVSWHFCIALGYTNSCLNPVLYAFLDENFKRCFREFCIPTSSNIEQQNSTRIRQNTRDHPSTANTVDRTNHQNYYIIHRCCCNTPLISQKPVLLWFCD

Test [1] concerns the target T1, mu3 opiate receptor (Homo sapiens, UniProt P35372). Type of test: cell-based. Details: aliquots of membrane suspensions from human granulocytes and lung non-small cell carcinoma; from tissue; host or cells: human granulocytes, human monocytes, normal lung, non-small cell lung carcinoma tissue, vascular tissue.
Test [2] concerns the target T1, mu3 opiate receptor. The test is described as follows: biochemical. The conditions noted are these: Displacement of [3H]-DHM IC50.

In the case of `CC[C@H](C)[C@H](NC(=O)[C@H](CCCNC(=N)N)NC(=O)[C@H](CCCNC(=N)N)NC(=O)[C@H](CC(C)C)NC(=O)[C@H](Cc1ccccc1)NC(=O)CNC(=O)CNC(=O)[C@@H](N)Cc1ccc(O)cc1)C(=O)N[C@@H](CCCNC(=N)N)C(=O)N1CCC[C@H]1C(=O)N[C@@H](CCCCN)C(=O)N[C@@H](CC(C)C)C(=O)N[C@@H](CCCCN)C(=O)N[C@@H](Cc1c[nH]c2ccccc12)C(=O)N[C@@H](CC(=O)O)C(=O)N[C@@H](CC(N)=O)C(=O)N[C@@H](CCC(N)=O)C(=O)O` [Dynorphin 1-17], the “stimulation of intracellular calcium level increases in endothelial cells” value on mu3 opiate receptor [1] is “did not stimulate”.

Regarding `CC(C)C[C@@H](NC(=O)[C@H](Cc1ccccc1)NC(=O)CNC(=O)[C@@H](C)NC(=O)[C@@H](N)Cc1ccc(O)cc1)C(=O)O` [DADLE, (D-Ala^2, Leu^5)-enkephalin], the IC50 at mu3 opiate receptor [2] is more than 1000 nM.
